Earlier results in patent publication US5053389A, “Insulin preparation for non-parenteral administration” (priority 1986, dated 1991).
Where two headings read alike, the source gives them in different places.

How the values were obtained:
[1] = oral
[2] = rectal, suppository
[3] = nasal
[4] = subcutaneous injection of dissolved insulin

Question: Which results are given for insulin?
Answer: Absorption of the amount of insulin administered [1]: 1-2%; Absorption of the amount of insulin administered [2]: about 5%; Proportion of insulin absorbed ([3]; dissolved and atomized form): up to 20%; Time to maximum insulin concentration ([3]; drops or atomized solution): 10 to 30 min; Time to maximum insulin concentration [4]: 30 to 60 min
